## scFv variants of Ab-14 (light chain) against a SARS-CoV-2 spike peptide

Data: MIT Lincoln Laboratory AlphaSeq set, Engelhart et al. 2022, doi:10.1038/s41597-022-01779-4, as distributed in FLAb.

Target: peptide PDVDLGDISGINAS, taken from heptad repeat 2 (HR2) of SARS-CoV-2 spike.

Parent: Ab-14, a human scFv built as VH, the linker GGGGSGGGGSGGGGS, VL. Only the CDRs of the light chain vary.
VH: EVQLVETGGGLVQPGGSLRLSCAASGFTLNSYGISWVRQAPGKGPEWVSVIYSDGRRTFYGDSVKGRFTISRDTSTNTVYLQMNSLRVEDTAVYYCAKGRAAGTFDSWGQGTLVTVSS
VL: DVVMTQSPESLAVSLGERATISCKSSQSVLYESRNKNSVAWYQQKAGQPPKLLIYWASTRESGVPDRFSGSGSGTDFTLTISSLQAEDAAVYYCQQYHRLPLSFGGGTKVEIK

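The parent was found by panning a naive human phage display library on the peptide. Library AAYL50 holds single substitutions and randomly drawn double and triple substitutions in the CDRs. AlphaSeq pools MATa yeast showing the antibodies with MATalpha yeast showing the peptide. After mating in shaken culture at 30 °C for 16 h, diploids were selected and their barcode pairs sequenced. Read counts were normalised to the haploid input and turned into Kd by a linear fit to BCL2-family pairs of known affinity, for each replicate. The assay was run in three technical replicates.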

Variants are written as CDR1, CDR2 and CDR3 of the light chain (limits as in the source). Parent: KSSQSVLYESRNKNSVA, WASTRES, QQYHRLPLS. This list gathers variants with a substitution at V29 (VL, numbered from residue 1). Affinities are written as log10 Kd with Kd in nM; a lower number is a better binder. Averages over replicates are reported, and they cover detected replicates only. A pair that was not seen in any replicate is written "nd"; this usually means weak binding, but a binder can also be missed. In this assay the parent's reference entry averaged 0.65; its copy inside this library read 1.68. Three control strains display no target. For library AAYL50, 18% of the pairings with them gave a signal, with a median of 4.19 and one signal in twenty below 2.99, so weak values seen in few replicates may be background.

* KTSQSELYELRNKNSVA | WASTRES | QQYHRLPLS = nd (0 of 3 replicates)
* KSSQSFLYESRNKNSVA | WASTRES | IQYHRLPLS = nd (0 of 3 replicates)
* KSSQSRLYDSRNKNSVA | WASTRES | QQDHRLPLS = 1.70 (3 of 3 replicates)
* KSSQSRLYESRNKNSVA | WASTQEA | QQYHRLPLS = nd (0 of 3 replicates)
* KSSQSDLYESRNGNSVA | WASTRES | QQQHRLPLS = nd (0 of 3 replicates)
* KSSQSFLYESRNQNSVA | WVSTRES | QQYHRLPLS = 0.96 (3 of 3 replicates)
* KASQSNLYESRNKESVA | WASTRES | QQYHRLPLS = 1.30 (3 of 3 replicates)
* KVSQSRLYESRNKNSVH | WASTRES | QQYHRLPLS = nd (0 of 3 replicates)
* KSSQSHLYESRNKNSVA | WASTRES | QQYHRLPHS = 2.94 (3 of 3 replicates)
* KSSQSELYKSRNKNSVA | WASTRES | QQYHRLGLS = 1.07 (3 of 3 replicates)
* KSSQSFLYESRNKCSVA | WASTRES | QQYQRLPLS = 1.63 (3 of 3 replicates)
* KSSQSCLCESRNKNSVA | WASTRES | QYYHRLPLS = 4.10 (2 of 3 replicates)
* KSSQSHLFESRNKNSVA | WASTDES | QQYHRLPLS = nd (0 of 3 replicates)
* KSSQSWLYESRNKNSEA | WLSTRES | QQYHRLPLS = 3.63 (1 of 3 replicates)
* KSSQIALYESRNKNSVA | WASTRES | QQYHRAPLS = 1.54 (3 of 3 replicates)
* KSSQSKLYESRYKNSVA | WASTRES | QQYHRLTLS = 1.01 (3 of 3 replicates)
* KSSQSPLYESRNKNSVA | RASTRES | QQYHRLPLI = 0.77 (3 of 3 replicates)
* KSSQSHLYESRVKNSVA | WASGRES | QQYHRLPLS = 3.44 (1 of 3 replicates)
* KSIQSDLYESRNKASVA | WASTRES | QQYHRLPLS = 2.05 (3 of 3 replicates)
* KSSDSGLYTSRNKNSVA | WASTRES | QQYHRLPLS = 0.53 (3 of 3 replicates)
* KSSQSILYESRNKNSVA | YASTRES | QQYHRLFLS = 1.34 (3 of 3 replicates)
* KSSQSRLYESRGKNSVA | WASTRES | QQYHALPLS = 2.54 (3 of 3 replicates)
* KSSQSKQYESRNKNSVA | WASTRES | QQYHCLPLS = 1.13 (3 of 3 replicates)
* KSSQSILYESRNKNSVA | WASTRES | QQYHRDPLS = nd (0 of 3 replicates)
* KSSQEALYESRNKNSVA | WASTRES | QQYWRLPLS = 0.42 (3 of 3 replicates)
* KSSQSQLYESRNKNSVA | WRSPRES | QQYHRLPLS = 5.61 (3 of 3 replicates)
* KSSQSMLYESRNMNSVA | WASTRES | FQYHRLPLS = nd (0 of 3 replicates)
* KNSQSCLYESRNKNSMA | WASTRES | QQYHRLPLS = 4.24 (1 of 3 replicates)
* KSSQSCLYESRNKNSVA | WASTRES | QQYHHLWLS = 2.89 (3 of 3 replicates)
* KSSQSSLRESRNKNSVA | WASTRES | QQYHRLPLL = 3.22 (2 of 3 replicates)
* KSVQSPLYESRVKNSVA | WASTRES | QQYHRLPLS = 5.99 (1 of 3 replicates)
* KSSQSIPYESRDKNSVA | WASTRES | QQYHRLPLS = 0.62 (3 of 3 replicates)
* KSSQSFLYESRNKNSVA | WASHRES | QQYHRLPLS = 1.69 (3 of 3 replicates)
* KSSQSFLYESRNKNSVA | WASTRES | SQDHRLPLS = nd (0 of 3 replicates)

From the list, the first 2 with no signal in any replicate:

{"CDR-L1": "KTSQSELYELRNKNSVA", "CDR-L2": "WASTRES", "CDR-L3": "QQYHRLPLS", "mean log10 Kd (nM)": "nd", "detected": "0 of 3"}
{"CDR-L1": "KSSQSFLYESRNKNSVA", "CDR-L2": "WASTRES", "CDR-L3": "IQYHRLPLS", "mean log10 Kd (nM)": "nd", "detected": "0 of 3"}